Measured values taken from patent US7144731B2, “SCF antibody compositions and methods of using the same” (Amgen Inc., priority 1989, dated 2006).

Experiments:
[1] = system: normal human bone marrow; experiment: Human CFU-GM assay; assay type: cell-based; details: average of triplicate cultures; SCF = COS-1 supernatant 4 days after transfection
Experimental: Recombinant rat SCF, and other factors, were tested individually in a human CFU-GM [Broxmeyer et al., supra (1977)] assay which measures the proliferation of normal bone marrow cells and the data are shown in Table 6. Results for COS-1 supernatants from cultures 4 days after transfection with V19.8 SCF^1-162 in combination with other factors are also shown in Table 6. Colony numbers are the average of triplicate cultures.

[2] = system: human bone marrow; experiment: Human bone marrow colony assay; assay type: cell-based; details: agar colony assay, factors alone or combined

B1: IL-3: human interleukin-3 (protein, UniProt P08700 20-152, looked up)
Interleukin-3: APMTQTTPLKTSWVNCSNMIDEIITHLKQPPLPLLDFNNLNGEDQDILMENNLRRPNLEAFNRAVKSLQNASAIESILKNLLPCLPLATAAPTRHPIHIKDGDWNEFRRKLTFYLKTLENAQAQQTTLSLAIF
[1]
  Colony #/100,000 cells (±SEM): 5 ± 1
[2]
  Colony #/10^5 cells (14 Days): 23 ± 1
